Measured values reported in article PMC6433648 (British Journal of Pharmacology, 2019).

The chains behind the UniProt entries cited, without tags or fusion partners. Residues count along the entry.
UniProt P30542, 2-326 limits assumed: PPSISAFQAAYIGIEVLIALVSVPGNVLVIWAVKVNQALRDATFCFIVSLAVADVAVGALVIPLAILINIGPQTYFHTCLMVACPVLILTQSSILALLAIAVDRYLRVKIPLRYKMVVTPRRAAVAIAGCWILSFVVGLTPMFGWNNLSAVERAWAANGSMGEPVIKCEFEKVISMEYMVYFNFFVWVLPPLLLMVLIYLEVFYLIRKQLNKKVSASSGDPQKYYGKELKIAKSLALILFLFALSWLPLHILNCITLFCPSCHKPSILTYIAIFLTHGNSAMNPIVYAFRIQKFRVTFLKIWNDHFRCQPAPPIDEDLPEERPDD

Target: human Nluc‐A1AR (Homo sapiens, UniProt P30542)
Assay: NanoBRET competition binding: inhibition of specific binding of CA200645
Design: expressed in transfected cells
Text: The IC50 values from competition‐binding curves were used to calculate the K i of the unlabelled ligands using the Cheng–Prusoff equation: Ki=IC50/1+L/KD, where [L] is the concentration of fluorescent ligand in nM, and K D is the dissociation constant of the fluorescent ligand in nM. The K D values used were obtained from the saturation‐binding experiments.

IC50 (Nluc‐human A1AR, 25 nM CA200645, HEK293T cells): 380 nM
Ki (read-out: pK i ± SEM (converted)): 219 nM
SMILES: O=C(Cc1ccccc1)Nc1nc2ccc(Cl)cc2c2nc(-c3ccco3)nn12 [MRS1220, N‐[9‐chloro‐2‐(furan‐2‐yl)‐[1,2,4]triazolo[1,5‐c]quinazolin‐5‐yl]‐2‐phenylacetamide]
